{
  "source": "patent US12378302B2",
  "about": "“Fusion molecules and uses thereof” (Foundation Medicine, Inc., priority 2012, dated 2025)",
  "origin": "cited, not measured here",
  "test_system": "tumors with FGFR1 fusions",
  "data": [
    {"smiles": "Cc1ccc(C(=O)Nc2ccc(CN3CCN(C)CC3)c(C(F)(F)F)c2)cc1C#Cc1cnc2cccnn12", "note": "[ponatinib]", "values": [
      {"measurement": "efficacy in preclinical studies of tumors with FGFR1 fusions", "result": "shown efficacy"}
    ]}
  ]
}
